Sequences of proteins named here, by UniProt entry; tags and fusion partners are left off. A change or cut given only in a name is not applied to a line headed by its entry.
UniProt O35505, whole entry: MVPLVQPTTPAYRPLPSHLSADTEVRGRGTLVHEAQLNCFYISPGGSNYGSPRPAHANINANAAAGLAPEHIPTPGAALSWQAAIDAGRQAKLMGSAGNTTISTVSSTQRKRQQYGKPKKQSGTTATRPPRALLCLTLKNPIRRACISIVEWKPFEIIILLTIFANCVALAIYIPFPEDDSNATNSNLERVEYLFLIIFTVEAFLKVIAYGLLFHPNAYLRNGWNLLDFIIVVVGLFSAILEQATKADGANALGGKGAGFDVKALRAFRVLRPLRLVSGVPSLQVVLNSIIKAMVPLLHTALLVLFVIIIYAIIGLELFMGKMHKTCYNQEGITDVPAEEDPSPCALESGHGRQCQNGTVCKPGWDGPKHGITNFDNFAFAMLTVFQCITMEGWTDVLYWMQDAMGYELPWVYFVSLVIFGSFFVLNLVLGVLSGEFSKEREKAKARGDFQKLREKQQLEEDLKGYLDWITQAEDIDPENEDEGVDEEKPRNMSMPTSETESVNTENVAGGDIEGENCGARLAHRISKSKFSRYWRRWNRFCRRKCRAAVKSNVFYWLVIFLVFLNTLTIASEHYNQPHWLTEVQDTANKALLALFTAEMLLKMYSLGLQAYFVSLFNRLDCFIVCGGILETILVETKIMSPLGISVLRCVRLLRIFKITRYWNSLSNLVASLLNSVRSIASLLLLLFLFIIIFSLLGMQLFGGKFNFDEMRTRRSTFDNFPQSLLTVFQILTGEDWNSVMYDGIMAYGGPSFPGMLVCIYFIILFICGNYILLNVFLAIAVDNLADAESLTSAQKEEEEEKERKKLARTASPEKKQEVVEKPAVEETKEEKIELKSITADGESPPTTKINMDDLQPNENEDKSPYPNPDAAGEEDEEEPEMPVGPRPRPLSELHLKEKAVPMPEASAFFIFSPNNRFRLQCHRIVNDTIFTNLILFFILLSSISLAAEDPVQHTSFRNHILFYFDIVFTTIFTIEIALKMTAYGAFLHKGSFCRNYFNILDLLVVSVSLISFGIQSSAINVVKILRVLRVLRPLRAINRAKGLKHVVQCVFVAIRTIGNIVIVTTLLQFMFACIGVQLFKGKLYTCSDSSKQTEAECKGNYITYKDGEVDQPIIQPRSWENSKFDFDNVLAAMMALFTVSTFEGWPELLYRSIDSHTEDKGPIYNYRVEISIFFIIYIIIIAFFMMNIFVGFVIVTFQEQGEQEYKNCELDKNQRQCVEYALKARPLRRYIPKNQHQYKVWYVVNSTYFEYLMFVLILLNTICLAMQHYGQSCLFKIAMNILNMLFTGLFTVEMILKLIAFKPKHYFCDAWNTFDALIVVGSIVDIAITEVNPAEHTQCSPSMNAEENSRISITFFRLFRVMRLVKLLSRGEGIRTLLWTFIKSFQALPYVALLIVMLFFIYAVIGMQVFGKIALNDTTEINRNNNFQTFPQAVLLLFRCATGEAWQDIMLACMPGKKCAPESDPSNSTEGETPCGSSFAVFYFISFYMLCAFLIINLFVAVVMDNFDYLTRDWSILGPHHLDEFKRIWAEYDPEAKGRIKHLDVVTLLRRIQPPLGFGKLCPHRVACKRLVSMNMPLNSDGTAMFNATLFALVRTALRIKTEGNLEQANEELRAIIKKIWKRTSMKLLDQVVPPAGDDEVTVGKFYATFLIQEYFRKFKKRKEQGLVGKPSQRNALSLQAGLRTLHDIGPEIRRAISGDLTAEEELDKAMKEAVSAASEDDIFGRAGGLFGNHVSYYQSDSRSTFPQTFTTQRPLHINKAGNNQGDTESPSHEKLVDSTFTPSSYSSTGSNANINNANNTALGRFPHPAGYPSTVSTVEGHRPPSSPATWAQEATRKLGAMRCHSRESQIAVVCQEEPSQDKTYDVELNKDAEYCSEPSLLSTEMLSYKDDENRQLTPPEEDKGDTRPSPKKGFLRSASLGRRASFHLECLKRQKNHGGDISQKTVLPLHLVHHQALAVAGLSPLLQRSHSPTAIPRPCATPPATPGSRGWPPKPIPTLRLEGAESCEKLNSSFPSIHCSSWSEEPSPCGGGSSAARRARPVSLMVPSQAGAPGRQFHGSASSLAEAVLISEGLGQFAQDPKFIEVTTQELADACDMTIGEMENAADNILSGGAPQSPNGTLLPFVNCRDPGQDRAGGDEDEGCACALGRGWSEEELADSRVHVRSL
UniProt Q14524, whole entry: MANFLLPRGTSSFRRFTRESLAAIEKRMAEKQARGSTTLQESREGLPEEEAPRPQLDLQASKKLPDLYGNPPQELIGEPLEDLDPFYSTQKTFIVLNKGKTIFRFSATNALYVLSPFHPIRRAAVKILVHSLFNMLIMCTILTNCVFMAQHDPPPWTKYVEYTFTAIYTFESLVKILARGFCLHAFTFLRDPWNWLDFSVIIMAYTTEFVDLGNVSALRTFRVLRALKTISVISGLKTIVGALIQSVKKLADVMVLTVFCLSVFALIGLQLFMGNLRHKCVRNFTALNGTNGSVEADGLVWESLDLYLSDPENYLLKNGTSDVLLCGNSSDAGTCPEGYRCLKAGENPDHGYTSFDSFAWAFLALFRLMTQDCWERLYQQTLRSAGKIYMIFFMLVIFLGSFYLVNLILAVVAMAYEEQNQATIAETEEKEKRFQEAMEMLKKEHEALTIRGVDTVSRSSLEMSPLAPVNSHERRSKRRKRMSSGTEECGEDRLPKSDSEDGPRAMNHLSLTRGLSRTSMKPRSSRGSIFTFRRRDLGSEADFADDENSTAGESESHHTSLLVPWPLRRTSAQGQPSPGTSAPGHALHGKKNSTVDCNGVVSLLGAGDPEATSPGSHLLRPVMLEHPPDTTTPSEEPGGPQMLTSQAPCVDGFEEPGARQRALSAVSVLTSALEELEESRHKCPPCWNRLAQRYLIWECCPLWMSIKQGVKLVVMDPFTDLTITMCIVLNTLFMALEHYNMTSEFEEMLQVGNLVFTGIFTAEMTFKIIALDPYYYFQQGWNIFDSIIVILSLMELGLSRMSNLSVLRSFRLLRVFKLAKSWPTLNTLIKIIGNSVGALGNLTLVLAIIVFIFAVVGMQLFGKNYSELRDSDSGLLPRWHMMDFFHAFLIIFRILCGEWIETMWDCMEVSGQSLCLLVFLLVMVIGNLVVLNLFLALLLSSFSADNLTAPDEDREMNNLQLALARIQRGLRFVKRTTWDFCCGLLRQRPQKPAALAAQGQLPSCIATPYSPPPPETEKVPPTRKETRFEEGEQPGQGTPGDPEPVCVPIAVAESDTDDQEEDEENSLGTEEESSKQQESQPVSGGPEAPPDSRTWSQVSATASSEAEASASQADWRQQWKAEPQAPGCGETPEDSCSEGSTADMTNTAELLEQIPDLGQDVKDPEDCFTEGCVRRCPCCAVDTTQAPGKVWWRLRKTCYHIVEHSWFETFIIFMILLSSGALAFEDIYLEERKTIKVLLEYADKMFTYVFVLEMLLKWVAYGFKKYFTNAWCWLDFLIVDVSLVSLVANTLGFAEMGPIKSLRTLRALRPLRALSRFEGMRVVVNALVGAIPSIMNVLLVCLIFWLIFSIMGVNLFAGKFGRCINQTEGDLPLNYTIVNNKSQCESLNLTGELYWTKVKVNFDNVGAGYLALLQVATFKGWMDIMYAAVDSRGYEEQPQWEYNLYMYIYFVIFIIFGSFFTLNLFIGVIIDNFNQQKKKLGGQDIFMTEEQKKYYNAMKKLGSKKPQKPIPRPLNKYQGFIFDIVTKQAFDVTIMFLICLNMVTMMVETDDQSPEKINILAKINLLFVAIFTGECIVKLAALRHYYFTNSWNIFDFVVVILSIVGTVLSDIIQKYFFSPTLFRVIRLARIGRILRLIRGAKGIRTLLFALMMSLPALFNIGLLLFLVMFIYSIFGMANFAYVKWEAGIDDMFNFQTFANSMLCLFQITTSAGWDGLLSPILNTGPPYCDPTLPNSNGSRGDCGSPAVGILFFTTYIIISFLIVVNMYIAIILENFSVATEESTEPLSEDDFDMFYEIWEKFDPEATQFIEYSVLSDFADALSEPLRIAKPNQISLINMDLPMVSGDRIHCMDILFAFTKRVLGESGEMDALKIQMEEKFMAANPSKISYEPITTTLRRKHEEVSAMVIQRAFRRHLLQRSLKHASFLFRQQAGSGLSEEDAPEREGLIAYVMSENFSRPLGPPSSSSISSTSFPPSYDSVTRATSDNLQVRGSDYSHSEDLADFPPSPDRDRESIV
UniProt Q12809: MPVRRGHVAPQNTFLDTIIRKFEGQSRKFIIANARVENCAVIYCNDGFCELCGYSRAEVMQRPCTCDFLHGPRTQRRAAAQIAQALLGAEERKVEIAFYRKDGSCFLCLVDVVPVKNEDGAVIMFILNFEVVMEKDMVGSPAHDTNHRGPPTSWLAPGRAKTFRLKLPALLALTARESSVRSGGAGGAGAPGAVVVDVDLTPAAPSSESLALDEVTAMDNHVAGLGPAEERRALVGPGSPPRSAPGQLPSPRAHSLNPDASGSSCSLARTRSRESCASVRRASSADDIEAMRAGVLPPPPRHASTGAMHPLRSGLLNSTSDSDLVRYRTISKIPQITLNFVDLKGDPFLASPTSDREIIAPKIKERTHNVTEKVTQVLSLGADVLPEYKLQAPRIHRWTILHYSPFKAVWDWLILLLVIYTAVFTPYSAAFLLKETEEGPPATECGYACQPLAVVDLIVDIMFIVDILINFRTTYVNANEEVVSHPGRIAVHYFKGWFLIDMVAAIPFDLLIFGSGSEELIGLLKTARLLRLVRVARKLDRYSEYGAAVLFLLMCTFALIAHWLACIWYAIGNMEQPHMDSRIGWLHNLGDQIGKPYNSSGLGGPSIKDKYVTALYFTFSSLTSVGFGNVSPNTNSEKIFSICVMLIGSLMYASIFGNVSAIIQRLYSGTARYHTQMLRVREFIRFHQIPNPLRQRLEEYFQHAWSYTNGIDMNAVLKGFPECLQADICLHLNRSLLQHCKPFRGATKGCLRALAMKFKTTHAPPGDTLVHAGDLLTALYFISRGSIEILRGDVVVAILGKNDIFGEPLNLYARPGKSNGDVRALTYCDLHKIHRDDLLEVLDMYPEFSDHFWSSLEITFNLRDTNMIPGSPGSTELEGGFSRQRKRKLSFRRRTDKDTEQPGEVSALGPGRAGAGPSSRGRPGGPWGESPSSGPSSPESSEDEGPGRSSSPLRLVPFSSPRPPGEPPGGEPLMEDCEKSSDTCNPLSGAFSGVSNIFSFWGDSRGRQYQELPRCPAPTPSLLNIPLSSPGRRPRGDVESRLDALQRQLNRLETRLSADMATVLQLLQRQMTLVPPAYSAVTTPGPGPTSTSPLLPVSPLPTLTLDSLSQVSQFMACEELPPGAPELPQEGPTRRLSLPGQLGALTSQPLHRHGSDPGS

According to ChEMBL document CHEMBL3430321, “Simulation of multiple ion channel block provides improved early prediction of compounds' clinical torsadogenic risk” (Cardiovasc Res, 2011):

Columns and labels:
[1] = molecular target: Voltage-dependent L-type calcium channel subunit alpha-1C (Cavia porcellus, UniProt O35505); test: Inhibition of calcium current (ICaL) measured using whole-cell patch clamp experiments in isolated guinea pig ventricular myocytes; assay type: functional, tissue-based, Heart, Ventricular myocyte
[2] = molecular target: Sodium channel protein type 5 subunit alpha (Homo sapiens, UniProt Q14524); test: Inhibition of sodium current measured using whole-cell patch clamp experiments in HEK-293 cells stably transfected with hNaV1.5 cDNA; assay type: functional, cell-based, HEK293
[3] = molecular target: Voltage-gated inwardly rectifying potassium channel KCNH2 (Homo sapiens, UniProt Q12809); test: Inhibition of hERG K channel; assay type: functional

| IC50 [1] | SMILES | IC50 [2] | IC50 [3] |
| --- | --- | --- | --- |
| 1.71 µM | CNCCCN1c2ccccc2CCc2ccccc21 [DESIPRAMINE] | 1.52 µM |  |
| 103 µM | O=C1NC(=O)C(c2ccccc2)(c2ccccc2)N1 [PHENYTOIN] |  | 100 µM |
|  | CC(C)COCC(CN(Cc1ccccc1)c1ccccc1)N1CCCC1 (stereo not given) [BEPRIDIL] |  | 0.033 µM |
